From PMC8758481, “Astroglial tracer BU99008 detects multiple binding sites in Alzheimer’s disease brain” (Molecular Psychiatry, 2021)
Read-outs that look alike come from different tables or passages of the source.

Molecular target: imidazoline-2 binding sites (I2BS)
Assay: ^3H-BU99008 competition binding assay with unlabelled ligands in temporal cortex brain homogenate
Set-up: species or system human
Conditions: for IC50: vs 1 nM ^3H-BU99008, two-site fit; for proportion of Low-affinity (LA; 10^-7 to -6 M) binding sites / proportion of Super high-affinity (SH; 10^-13 to -11 M) binding sites: ^3H-BU99008 competition
Experimental: After 1 h incubation a similar protocol as saturation binding assay was done and the binding was quantified using the scintillation counter.
The competition binding data was fitted and analysed using non-linear regression competitive-binding function of GraphPad Prism 8.3 software to determine IC50 (half-maximal inhibitory concentration) values.

## C#CCN(C)[C@H](C)Cc1ccccc1 [deprenyl, (R)-(-)-Deprenyl]
AD temporal cortex, read-out: IC50_1
  IC50: 0.012 nM
AD temporal cortex, read-out: IC50_2
  IC50: 938 nM
AD
  proportion of Low-affinity (LA; 10^-7 to -6 M) binding sites: 50%
  proportion of Super high-affinity (SH; 10^-13 to -11 M) binding sites: ~ 50%
CN temporal cortex, read-out: IC50_2
  IC50: 1360 nM
CN
  proportion of Low-affinity (LA; 10^-7 to -6 M) binding sites: 50%
  proportion of Super high-affinity (SH; 10^-13 to -11 M) binding sites: ~ 50%
